PubChem BioAssay AID435005 (Broad Institute, 2010)
The list shows a part of the results, in another mix than the full data. Calls of active or inactive are those of the source.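 The calls were made as follows: active = Every replicate reaches about 75%, or at least half do and their mean reaches it too (limit read from the data); inconclusive = At least half of replicates reach the limit but their mean does not; inactive = Under half of replicates reach the limit.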

Assay: INS-1E beta cell survival under cytokines – luminescence, primary screen (AID 435005);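 also: 0% = cytokine-treated negative control wells and 100% = positive control rescue; higher means more ATP so stronger rescue from cytokine killing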
Conditions: INS-1E cytokine-induced death, ATP luminescence, 48 h; active compounds read high; percent of positive-control rescue, neutral wells zero; concentration not given here

| Structure (SMILES) | protection from apoptosis |
| --- | --- |
| CC[n+]1c(/C=C/N(C)c2ccccc2)oc2ccccc21 | active: 102% |
